Antibody variant affinities, Ab-91 heavy chain, assay 2

Antigen: PDVDLGDISGINAS, a 14-residue peptide of the SARS-CoV-2 spike HR2 region.

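The starting antibody came from a phage panning campaign against this peptide. Variants in AAYL51 differ from the parent at up to three CDR positions; double and triple changes were sampled at random. Affinity was read by AlphaSeq, a pooled yeast mating assay with surface-displayed partners. The frequency of each diploid, read from paired DNA barcodes, reflects how well the two displayed proteins bind. A regression on co-assayed BCL2-family reference pairs converts the normalised counts of each replicate to an apparent Kd. Each pool was mated in three replicate cultures.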

Parent: Ab-91, a human scFv built as VL, three GGGGS repeats, VH. Only the CDRs of the heavy chain vary.
VL: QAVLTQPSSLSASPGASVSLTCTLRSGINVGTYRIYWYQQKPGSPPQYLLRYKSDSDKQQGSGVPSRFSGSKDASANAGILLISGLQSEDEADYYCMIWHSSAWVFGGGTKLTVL
VH: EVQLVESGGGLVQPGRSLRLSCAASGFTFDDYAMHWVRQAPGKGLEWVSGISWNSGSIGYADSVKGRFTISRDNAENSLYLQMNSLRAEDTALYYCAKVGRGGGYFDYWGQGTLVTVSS

Each variant is given by its three heavy chain CDRs, as the data file delimits them; those of the parent are GFTFDDYAMH, GISWNSGSIGYADSVK, VGRGGGYFDY.
All variants listed here change S55 of the VH, counted from its first residue.
The Kd shown is the geometric mean over detected replicates; a lower Kd is a better binder.
An entry "nd" has no value in the source: the pair was not observed among the diploids in any replicate. This suggests poor binding but is not conclusive.
Nonspecific signal, from three strains lacking the peptide, appeared in 21% of pairings of library AAYL51, centred on 34 µM (5% of these signals below 1.8 µM); values are not corrected for it. For each scFv, signals with the empty controls are counted beside the result.
Parent in this assay: reference entry 72 nM, copy in this library 7.5 nM.

* GFTFDDYAMH / GIAWNAGSIGYADSVK / VGRGNGYFDY = 370 nM (3 of 3 replicates; controls 2 of 9)
* GFTFDNYAMH / GISWNQGSIGYADSVK / VGRGGGYFDF = 87 nM (3 of 3 replicates; controls 2 of 9)
* GCTFDDYAMH / GISWNNGSIGYADSVK / LGRGGGYFDY = 200 µM (1 of 3 replicates; controls 1 of 9)
* GFTFDDYAMH / GISWNDGSIGYADSVK / VGRGGGKFDY = nd (0 of 3 replicates; controls 3 of 9)
* GFTFDDYAMH / GISWNAGSIGYADSVK / VYRYGGYFDY = 42 µM (3 of 3 replicates; controls 8 of 9)
* GFTFDDYAMH / GISWNEGSIGYAQSVK / VGRGGGYFDY = 7.0 µM (3 of 3 replicates; controls 4 of 9)
* IFTFDDYAMH / WISWNCGSIGYADSVK / VGRGGGYFDY = nd (0 of 3 replicates; controls 1 of 9)
* GKTFDDYAMH / GISWNGGSIGYADSFK / VGRGGGYFDY = 12 µM (2 of 3 replicates; controls 2 of 9)
* GFTFHDYAMH / GISWNRGSIGYADSVL / VGRGGGYFDY = 46 µM (1 of 3 replicates; controls 4 of 9)
* GFTFDDYAMH / GISWNNGSIGYADSVK / VGRGGGYFPY = 54 µM (2 of 3 replicates; controls 3 of 9)
* GFTFDDYAMQ / GISWNRGSIGYADSVK / VGRGGGYFDY = nd (0 of 3 replicates; controls 0 of 9)
* GFCFDDYAMH / GISWNMGSIGYADSVK / VGRGCGYFDY = 44 µM (2 of 3 replicates; controls 2 of 9)
* GFTFDDYAMP / GISWNYGSIGGADSVK / VGRGGGYFDY = 89 µM (1 of 3 replicates; controls 3 of 9)
* GFTFDDYAMD / GISWNRGSIGYADSVK / VGRGGGYFDY = 71 µM (1 of 3 replicates; controls 1 of 9)
* GFTFDDYAPH / GISWNYASIGYADSVK / VGRGGGYFDY = 3.7 mM (1 of 3 replicates; controls 4 of 9)
* GFTFDDYAMH / WISWQDGSIGYADSVK / VGRGGGYFDY = nd (0 of 3 replicates; controls 0 of 9)
* GFTFDDYAMH / GMSWNVGDIGYADSVK / VGRGGGYFDY = nd (0 of 3 replicates; controls 1 of 9)
* GFTFDDYACH / GISWNLGSIGYADSVQ / VGRGGGYFDY = 4.3 µM (3 of 3 replicates; controls 4 of 9)
* GFTFDDYAMH / GISWNRGSIGEADSVK / VGRFGGYFDY = nd (0 of 3 replicates; controls 0 of 9)
* DFTFDDYAMH / GISWNKGAIGYADSVK / VGRGGGYFDY = nd (0 of 3 replicates; controls 0 of 9)
* GFTFDDYAMH / GISWNTGSMGYADSVK / VGRGGGYFDV = 26 nM (3 of 3 replicates; controls 2 of 9)
* KFTFDDYAMH / GMSWNKGSIGYADSVK / VGRGGGYFDY = nd (0 of 3 replicates; controls 0 of 9)
* GFTFDDYAMH / GISWNDGSIGYATSVK / VGRGGGYFCY = 140 µM (1 of 3 replicates; controls 5 of 9)
* GFTFDDYDMH / GISWNVGSIGYADSVK / VGRGGGYFDY = 24 µM (2 of 3 replicates; controls 2 of 9)
* GFTFDDYLMH / GISWNCGSIGYADSVK / VGRGGGYFDY = 93 µM (1 of 3 replicates; controls 2 of 9)
* GFTFDDYAMH / GISWQKGSIGYADSHK / VGRGGGYFDY = nd (0 of 3 replicates; controls 0 of 9)
* GFTFNDYAPH / GISWNFGSIGYADSVK / VGRGGGYFDY = nd (0 of 3 replicates; controls 1 of 9)
* GFTFDDYAMH / NISWNMGSIGYADSSK / VGRGGGYFDY = 91 µM (1 of 3 replicates; controls 3 of 9)
* GFTFDDYAMH / GISWNAGSIGYADSVA / VMRGGGYFDY = 460 nM (3 of 3 replicates; controls 4 of 9)
* GFTFDDYAMH / GIWWNKGSIGYADSVK / VARGGGYFDY = 110 µM (1 of 3 replicates; controls 2 of 9)
* GFTFDDYAMH / GISWYNGSIGYADSVK / VGRGGGYTDY = nd (0 of 3 replicates; controls 2 of 9)
* GFTFDDYAMH / GISWNMGSIGYAGSVD / VGRGGGYFDY = 1.9 µM (3 of 3 replicates; controls 6 of 9)
* GFTFDDYAMC / GISWNDGSIGYADSVK / IGRGGGYFDY = 7.0 µM (1 of 3 replicates; controls 2 of 9)
* GFTFDDYAMH / GISWNWGSIGYADSVK / VGMGGGYFCY = 16 µM (2 of 3 replicates; controls 1 of 9)
* GFTFDDYAQH / GISWNWGSIGYADSVK / VGRHGGYFDY = nd (0 of 3 replicates; controls 1 of 9)
* GFTFDDYAYH / GISWNKGSIGYADSVR / VGRGGGYFDY = 97 µM (1 of 3 replicates; controls 4 of 9)
* GFTFDDYCWH / GISWNDGSIGYADSVK / VGRGGGYFDY = nd (0 of 3 replicates; controls 1 of 9)
* GFTFDDYAMS / GISWNQGSIGYADSVK / VGRGGMYFDY = 200 µM (1 of 3 replicates; controls 6 of 9)

For reference, 5 entries of the list once more:

- GFTFDDYAMH / GIWWNKGSIGYADSVK / VARGGGYFDY -> 110 µM (1 of 3 replicates; controls 2 of 9)
- GFTFDDYAMS / GISWNQGSIGYADSVK / VGRGGMYFDY -> 200 µM (1 of 3 replicates; controls 6 of 9)
- GFCFDDYAMH / GISWNMGSIGYADSVK / VGRGCGYFDY -> 44 µM (2 of 3 replicates; controls 2 of 9)
- DFTFDDYAMH / GISWNKGAIGYADSVK / VGRGGGYFDY -> nd (0 of 3 replicates; controls 0 of 9)
- IFTFDDYAMH / WISWNCGSIGYADSVK / VGRGGGYFDY -> nd (0 of 3 replicates; controls 1 of 9)

Source: Engelhart et al. 2022 (doi:10.1038/s41597-022-01779-4), MIT Lincoln Laboratory and A-Alpha Bio; data file from the FLAb repository.